# Publication PMC9676650, “Binding pocket stabilization by high-throughput screening of yeast display libraries” (Frontiers in Molecular Biosciences, 2022)
# Amino acid sequences for entries named in this document (tags omitted). A change or cut given only in a name is not applied to a line headed by its entry. Residues count along the entry.
# UniProt Q13451, 1-140 limits assumed: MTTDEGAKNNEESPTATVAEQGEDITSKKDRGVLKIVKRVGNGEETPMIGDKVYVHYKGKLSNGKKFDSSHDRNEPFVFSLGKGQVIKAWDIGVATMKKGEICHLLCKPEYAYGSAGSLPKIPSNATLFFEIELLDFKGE
# UniProt Q13451, 1-140 D68Y limits assumed: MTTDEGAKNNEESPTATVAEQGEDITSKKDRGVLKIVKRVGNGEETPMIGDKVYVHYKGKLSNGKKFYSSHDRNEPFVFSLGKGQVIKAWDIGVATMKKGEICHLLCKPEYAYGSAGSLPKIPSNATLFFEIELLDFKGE
# UniProt Q13451, 1-140 G64S limits assumed: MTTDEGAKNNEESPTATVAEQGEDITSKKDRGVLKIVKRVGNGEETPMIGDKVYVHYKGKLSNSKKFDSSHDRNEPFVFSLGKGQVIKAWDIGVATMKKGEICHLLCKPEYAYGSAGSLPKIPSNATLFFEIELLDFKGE
# What was measured:
# FKBP51 variant D68Y = FKBP51 variant D68Y (Homo sapiens, UniProt Q13451, D68Y); test: Competitive fluorescence polarization assay, FKBP51 D68Y; conditions: read-out: Kd-value (ligand binding constant, competitive fluorescence polarization); 80-100 nM FKBP51 D68Y; 1 nM FK [431]-TA tracer; 30 min room temperature; fitted as KI in competitive binding model
# Text: (§1) All ligands and tracers used for fluorescence polarization assays had purities of more than 95%. The following ligands and tracers were used for fluorescence polarization and FACS screening experiments: •SAFit-FL tracer (1): Fluorescein conjugated analog of the iFit ligand class. •Mcyc-TA tracer (2): TAMRA conjugated macrocyclic ligand (5). •FK [431]-TA tracer (3): TAMRA conjugated FK [431] ligand (6). •SAFit1 ligand (4): analog of the iFit ligand class. •macrocyclic ligand (5):macrocyclic analog of the SAFit class ligands. •FK [431] ligand (6):bicyclic analog of the immunosuppressive drug FK506
# (§2) In order to rule out artifacts introduced by the fluorophore of the tracers, competitive fluorescence polarization assays were carried out. Therefore, a serial dilution of an FK [431] ligand (6), SAFit1 (4), or a macrocyclic ligand 5) (Supplementary Figure S8) in assay buffer was placed in a 384-well assay plate. To the compounds, a mixture of the respective protein (20 nM WT, 10–40 nM G64S or 80–100 nM D68Y) and 1 nM of the FK [431]-TA in assay buffer was added. After incubating for 30 min at room temperature, the fluorescence polarization was measured. […]
# FKBP51 F67Y variant = conditions: ref Jagtap et al., 2019; cited from earlier work
# FKBP51 variant G64S = FKBP51 variant G64S (Homo sapiens, UniProt Q13451, G64S); test: Competitive fluorescence polarization assay, FKBP51 G64S; conditions: read-out: Kd-value (ligand binding constant, competitive fluorescence polarization); 10-40 nM FKBP51 G64S; 1 nM FK [431]-TA tracer; 30 min room temperature; fitted as KI in competitive binding model
# Text: as §1, §2
# FKBP51 F67V variant = conditions: ref Jagtap et al., 2019; cited from earlier work
# FKBP51 WT = FKBP51 WT (Homo sapiens, UniProt Q13451); test: Competitive fluorescence polarization assay, FKBP51 WT; conditions: read-out: Kd-value (ligand binding constant, competitive fluorescence polarization); 20 nM FKBP51 WT; 1 nM FK [431]-TA tracer; 30 min room temperature; fitted as KI in competitive binding model
# Text: as §1, §2
Kd (FKBP51 variant D68Y) [nM],Kd (FKBP51 variant G64S) [nM],Kd (FKBP51 WT) [nM],Compound,binding affinity compared to the WT (FKBP51 F67Y variant),Kd value compared to the WT (FKBP51 F67V variant)
126,56,27,O=C1[C@@H]2CCC[C@H]([C@@H](CO)CN1Cc1ccccn1)N2S(=O)(=O)c1cc(Cl)cc(Cl)c1,decrease in its binding affinity,slight improvement of the Kd value
10,29,780,COc1ccc(CC[C@H]2OC(=O)[C@@H]3CCCCN3C(=O)[C@@H](C3CCCCC3)NC(=O)C(C)(C)N(C)C(=O)COc3cccc2c3)cc1OC,–,–
